Biological target: human BChE (hBChE) (Homo sapiens, UniProt P06276)
Experiment: hBChE enzyme inhibition and kinetics
Assay type: biochemical

Protein sequences, listed by entry. Tags and fused reporters are not part of them. Residues count along the entry.
UniProt P06276, 29-602: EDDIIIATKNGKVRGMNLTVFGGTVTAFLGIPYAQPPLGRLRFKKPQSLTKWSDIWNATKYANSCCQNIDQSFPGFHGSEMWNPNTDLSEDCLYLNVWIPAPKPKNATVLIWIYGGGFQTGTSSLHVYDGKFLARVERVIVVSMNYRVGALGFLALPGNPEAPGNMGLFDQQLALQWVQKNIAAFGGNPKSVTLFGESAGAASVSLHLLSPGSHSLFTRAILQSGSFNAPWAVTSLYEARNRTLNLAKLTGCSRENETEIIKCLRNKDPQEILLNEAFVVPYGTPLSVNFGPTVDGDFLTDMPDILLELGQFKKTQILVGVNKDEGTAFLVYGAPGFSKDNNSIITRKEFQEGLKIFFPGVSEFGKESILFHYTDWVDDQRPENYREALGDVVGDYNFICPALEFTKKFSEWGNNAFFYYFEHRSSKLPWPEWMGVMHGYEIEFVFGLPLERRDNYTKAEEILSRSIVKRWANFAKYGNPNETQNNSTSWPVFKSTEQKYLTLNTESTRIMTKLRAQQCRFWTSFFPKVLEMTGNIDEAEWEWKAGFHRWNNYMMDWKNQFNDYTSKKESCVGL

In the case of CCN(C)C(=O)Oc1cccc([C@H](C)N(C)C)c1 [rivastigmine], the IC50 is reported as 266 nM.
